Values quoted from earlier work in US20230000960A1, “NEOANTIGEN COMPOSITIONS AND USES THEREOF” (BIONTECH US INC., priority 2019, published 2023).

Conditions: more than 25 clinical trials

For poly-ICLC, the toxicity profile is given as “relatively benign toxicity profile”.
